Literature values in patent publication US6825040B2, “Method of using a vapor acid test kit” (Mainstream Engineering Corporation, priority 1995, dated 2004).
Only a part of the results on these compounds is given; other tests are left out.

Conditions: pH range of the indicator colour change

Structure (SMILES): O=[N+]([O-])NCc1c([N+](=O)[O-])cc([N+](=O)[O-])cc1[N+](=O)[O-]
- pH Range: 10.8 to 13.0
